Literature values in patent US20240166770A1, “COMPOSITIONS AND METHODS FOR INHIBITION OF CELL-PENETRATING ANTIBODIES” (Yale University, priority 2019, published 2024).
Like-named read-outs stand apart in the source and are kept apart here.

Sequences of proteins named here, by UniProt entry; tags and fusion partners are left off.
UniProt Q14542, whole entry: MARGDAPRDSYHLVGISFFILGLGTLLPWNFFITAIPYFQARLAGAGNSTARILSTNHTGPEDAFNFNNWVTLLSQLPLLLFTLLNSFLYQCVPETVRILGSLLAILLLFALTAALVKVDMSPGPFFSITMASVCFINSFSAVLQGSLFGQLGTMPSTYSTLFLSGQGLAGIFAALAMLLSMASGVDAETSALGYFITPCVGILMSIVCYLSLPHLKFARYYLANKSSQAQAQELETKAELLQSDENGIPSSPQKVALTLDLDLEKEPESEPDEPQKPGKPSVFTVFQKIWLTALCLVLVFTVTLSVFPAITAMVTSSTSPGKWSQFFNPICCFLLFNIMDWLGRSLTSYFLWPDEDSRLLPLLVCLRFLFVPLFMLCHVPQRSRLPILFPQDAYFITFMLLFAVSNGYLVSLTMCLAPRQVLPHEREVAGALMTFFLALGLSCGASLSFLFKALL
UniProt Q7RTT9, whole entry: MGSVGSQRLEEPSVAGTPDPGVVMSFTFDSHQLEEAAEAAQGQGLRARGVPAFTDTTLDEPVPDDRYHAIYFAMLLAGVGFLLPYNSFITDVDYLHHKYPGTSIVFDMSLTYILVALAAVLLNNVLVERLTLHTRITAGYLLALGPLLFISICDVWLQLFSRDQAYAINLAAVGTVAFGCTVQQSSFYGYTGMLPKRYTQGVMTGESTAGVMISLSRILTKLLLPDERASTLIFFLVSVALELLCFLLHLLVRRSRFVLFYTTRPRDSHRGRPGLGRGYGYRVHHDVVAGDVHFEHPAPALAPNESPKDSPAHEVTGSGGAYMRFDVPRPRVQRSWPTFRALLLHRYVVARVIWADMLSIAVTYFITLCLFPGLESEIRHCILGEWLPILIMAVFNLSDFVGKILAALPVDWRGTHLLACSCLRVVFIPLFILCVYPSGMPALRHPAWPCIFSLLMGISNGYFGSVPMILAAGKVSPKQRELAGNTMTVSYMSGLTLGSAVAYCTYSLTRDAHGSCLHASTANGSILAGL
UniProt Q99808, whole entry: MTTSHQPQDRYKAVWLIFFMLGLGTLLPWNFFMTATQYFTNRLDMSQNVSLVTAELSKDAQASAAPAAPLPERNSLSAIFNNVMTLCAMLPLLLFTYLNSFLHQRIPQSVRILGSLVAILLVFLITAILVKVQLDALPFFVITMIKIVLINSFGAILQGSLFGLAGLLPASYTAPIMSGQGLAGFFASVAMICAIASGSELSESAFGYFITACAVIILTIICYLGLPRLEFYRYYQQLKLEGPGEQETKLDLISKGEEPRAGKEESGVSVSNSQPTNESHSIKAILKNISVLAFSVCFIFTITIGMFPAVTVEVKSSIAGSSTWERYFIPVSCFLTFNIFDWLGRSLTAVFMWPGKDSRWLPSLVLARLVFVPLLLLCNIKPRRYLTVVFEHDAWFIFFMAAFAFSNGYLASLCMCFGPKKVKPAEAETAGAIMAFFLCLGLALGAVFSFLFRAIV

Key:
hENT2 = hENT2 (Homo sapiens, UniProt Q14542); conditions: read-out: hENT2 IC50, cited from earlier work
hENT4 = hENT4 (Homo sapiens, UniProt Q7RTT9); conditions: read-out: hENT4 IC50, cited from earlier work
hENT1 = hENT1 (Homo sapiens, UniProt Q99808); conditions: read-out: hENT1 IC50, cited from earlier work
[1] = Table 3, free hydrogen on the nitrogen of 4- and 8-position substituents
[2] = Table 1, different ring systems at the 4- and 8-positions
[3] = Table 2, opening chain analogues

For `CCCCNc1nc(NCCO)nc2c(NCCCC)nc(NCCO)nc12`, the IC50 (hENT2; [1]) is listed as 2.2 µM and the IC50 (hENT4; [1]) is listed as 3.87 µM.

For `CCCNc1nc(NCCO)nc2c(NCCC)nc(NCCO)nc12`, the IC50 (hENT4; [1]) is listed as 10.1 µM and the IC50 (hENT1; [1]) is listed as 3.88 µM.

For `CCCCCNc1nc(NCCO)nc2c(NCCCCC)nc(NCCO)nc12`, the IC50 (hENT4; [1]) is given as 3.07 µM.

In the case of `OCCNc1nc(N2CCCCCCCC2)c2nc(NCCO)nc(N3CCCCCCCC3)c2n1`, the IC50 (hENT2; [2]) is given as 1.39 µM and the IC50 (hENT4; [2]) is given as 0.513 µM.

In the case of `CC(C)CN(CC(C)C)c1nc(NCCO)nc2c(N(CC(C)C)CC(C)C)nc(NCCO)nc12`, the IC50 (hENT4; [3]) is listed as 0.0744 µM.

In the case of `CC(C)CCNc1nc(NCCO)nc2c(NCCC(C)C)nc(NCCO)nc12`, the IC50 (hENT4; [1]) is given as 3.76 µM and the IC50 (hENT1; [1]) is given as 1.17 µM.

For `COCCN(CCOC)c1nc(NCCO)nc2c(N(CCOC)CCOC)nc(NCCO)nc12`, the IC50 (hENT2; [3]) is listed as 8.06 µM, the IC50 (hENT4; [3]) is listed as 80.4 µM and the IC50 (hENT1; [3]) is listed as 4.22 µM.

For `CC(C)(C)Nc1nc(NCCO)nc2c(NC(C)(C)C)nc(NCCO)nc12`, the IC50 (hENT4; [1]) is listed as 3.27 µM and the IC50 (hENT1; [1]) is listed as 6.54 µM.

In the case of `OCCNc1nc(N2CCCCCC2)c2nc(NCCO)nc(N3CCCCCC3)c2n1`, the IC50 (hENT4; [2]) is listed as 0.595 µM and the IC50 (hENT1; [2]) is listed as 0.466 µM.

For `OCCNc1nc(N2CCCC2)c2nc(NCCO)nc(N3CCCC3)c2n1`, the IC50 (hENT4; [2]) is listed as 3.91 µM and the IC50 (hENT1; [2]) is listed as 0.116 µM.

In the case of `CC(C)CNc1nc(NCCO)nc2c(NCC(C)C)nc(NCCO)nc12`, the IC50 (hENT2; [1]) is given as 1.49 µM, the IC50 (hENT4; [1]) is given as 8.66 µM and the IC50 (hENT1; [1]) is given as 0.784 µM.

For `CCC(C)(C)Nc1nc(NCCO)nc2c(NC(C)(C)CC)nc(NCCO)nc12`, the IC50 (hENT4; [1]) is listed as 1.34 µM and the IC50 (hENT1; [1]) is listed as 2.61 µM.

For `OCCNc1nc(N2C3CCCC2CC3)c2nc(NCCO)nc(N3C4CCCC3CC4)c2n1`, the IC50 (hENT4; [2]) is listed as 0.324 µM.

In the case of `CCN(CC)c1nc(NCCO)nc2c(N(CC)CC)nc(NCCO)nc12`, the IC50 (hENT2; [3]) is given as 4.22 µM, the IC50 (hENT4; [3]) is given as 3.13 µM and the IC50 (hENT1; [3]) is given as 0.613 µM.

In the case of `CCCCN(CCCC)c1nc(NCCO)nc2c(N(CCCC)CCCC)nc(NCCO)nc12`, the IC50 (hENT2; [3]) is listed as 1.31 µM and the IC50 (hENT4; [3]) is listed as 0.871 µM.

In the case of `OCCNc1nc(NC2CCCCC2)c2nc(NCCO)nc(NC3CCCCC3)c2n1`, the IC50 (hENT4; [1]) is listed as 65.3 µM.

For `CCCN(CCC)c1nc(NCCO)nc2c(N(CCC)CCC)nc(NCCO)nc12`, the IC50 (hENT4; [3]) is given as 0.0977 µM and the IC50 (hENT1; [3]) is given as 7.46 µM.

For `CC(C)Nc1nc(NCCO)nc2c(NC(C)C)nc(NCCO)nc12`, the IC50 (hENT4; [1]) is given as 11.6 µM and the IC50 (hENT1; [1]) is given as 5.87 µM.

For `CCNc1nc(NCCO)nc2c(NCC)nc(NCCO)nc12`, the IC50 (hENT4; [1]) is given as 38.5 µM.
